Test results reported in patent US20160287666A1 (priority 2015, published 2016).

Amino acid sequences for entries named in this document (tags omitted). A change or cut given only in a name is not applied to a line headed by its entry.
UniProt Q15858: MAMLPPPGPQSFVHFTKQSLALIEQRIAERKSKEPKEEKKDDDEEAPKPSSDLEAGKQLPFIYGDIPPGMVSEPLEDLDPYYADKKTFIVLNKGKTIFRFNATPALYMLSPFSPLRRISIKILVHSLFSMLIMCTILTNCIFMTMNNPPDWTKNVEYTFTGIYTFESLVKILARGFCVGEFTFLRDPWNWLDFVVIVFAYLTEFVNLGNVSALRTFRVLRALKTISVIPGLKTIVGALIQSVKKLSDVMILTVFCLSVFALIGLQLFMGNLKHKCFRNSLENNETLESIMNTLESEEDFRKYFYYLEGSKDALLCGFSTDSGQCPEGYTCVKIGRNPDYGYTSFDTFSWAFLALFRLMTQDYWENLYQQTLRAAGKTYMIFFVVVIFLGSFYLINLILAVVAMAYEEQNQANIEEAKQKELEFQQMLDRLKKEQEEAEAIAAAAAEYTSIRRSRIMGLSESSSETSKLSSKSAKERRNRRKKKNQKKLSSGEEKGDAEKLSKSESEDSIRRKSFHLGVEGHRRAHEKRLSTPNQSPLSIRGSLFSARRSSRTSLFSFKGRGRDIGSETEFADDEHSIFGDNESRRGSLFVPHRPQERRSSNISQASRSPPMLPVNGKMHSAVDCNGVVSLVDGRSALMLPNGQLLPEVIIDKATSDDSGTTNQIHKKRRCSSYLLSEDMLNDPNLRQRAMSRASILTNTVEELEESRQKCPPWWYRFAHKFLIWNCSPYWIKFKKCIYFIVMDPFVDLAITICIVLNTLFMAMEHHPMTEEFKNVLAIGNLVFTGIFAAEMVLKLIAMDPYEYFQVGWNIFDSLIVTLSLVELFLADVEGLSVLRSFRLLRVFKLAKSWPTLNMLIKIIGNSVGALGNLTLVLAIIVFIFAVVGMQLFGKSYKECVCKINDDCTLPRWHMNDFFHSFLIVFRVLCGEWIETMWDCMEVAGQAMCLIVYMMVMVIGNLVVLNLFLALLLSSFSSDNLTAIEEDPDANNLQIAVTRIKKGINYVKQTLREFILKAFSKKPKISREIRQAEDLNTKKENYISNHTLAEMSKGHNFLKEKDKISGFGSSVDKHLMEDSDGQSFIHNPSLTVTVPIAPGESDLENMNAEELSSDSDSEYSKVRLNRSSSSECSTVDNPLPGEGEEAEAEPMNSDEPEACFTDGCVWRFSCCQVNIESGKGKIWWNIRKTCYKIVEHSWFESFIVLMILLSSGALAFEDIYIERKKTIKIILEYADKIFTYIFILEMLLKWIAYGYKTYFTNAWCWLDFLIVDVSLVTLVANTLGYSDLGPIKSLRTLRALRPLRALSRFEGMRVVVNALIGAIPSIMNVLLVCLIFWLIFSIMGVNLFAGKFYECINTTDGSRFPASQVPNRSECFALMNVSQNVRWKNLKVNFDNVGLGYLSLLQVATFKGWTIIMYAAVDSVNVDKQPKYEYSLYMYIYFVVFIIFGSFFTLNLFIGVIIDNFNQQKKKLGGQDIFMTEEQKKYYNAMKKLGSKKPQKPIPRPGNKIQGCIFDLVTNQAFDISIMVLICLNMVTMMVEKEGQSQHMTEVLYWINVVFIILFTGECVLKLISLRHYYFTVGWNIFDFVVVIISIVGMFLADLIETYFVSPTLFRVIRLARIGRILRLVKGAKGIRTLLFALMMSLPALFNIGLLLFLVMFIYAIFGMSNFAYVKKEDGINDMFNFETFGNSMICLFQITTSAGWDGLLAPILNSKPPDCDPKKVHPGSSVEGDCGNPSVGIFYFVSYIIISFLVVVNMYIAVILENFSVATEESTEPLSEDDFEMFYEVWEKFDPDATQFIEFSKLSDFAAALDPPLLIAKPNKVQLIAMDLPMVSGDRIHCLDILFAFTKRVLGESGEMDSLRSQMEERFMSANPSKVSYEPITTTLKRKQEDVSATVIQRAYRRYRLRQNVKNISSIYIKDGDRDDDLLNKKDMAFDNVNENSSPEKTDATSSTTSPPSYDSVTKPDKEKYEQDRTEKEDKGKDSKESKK
UniProt Q9UQD0, whole entry: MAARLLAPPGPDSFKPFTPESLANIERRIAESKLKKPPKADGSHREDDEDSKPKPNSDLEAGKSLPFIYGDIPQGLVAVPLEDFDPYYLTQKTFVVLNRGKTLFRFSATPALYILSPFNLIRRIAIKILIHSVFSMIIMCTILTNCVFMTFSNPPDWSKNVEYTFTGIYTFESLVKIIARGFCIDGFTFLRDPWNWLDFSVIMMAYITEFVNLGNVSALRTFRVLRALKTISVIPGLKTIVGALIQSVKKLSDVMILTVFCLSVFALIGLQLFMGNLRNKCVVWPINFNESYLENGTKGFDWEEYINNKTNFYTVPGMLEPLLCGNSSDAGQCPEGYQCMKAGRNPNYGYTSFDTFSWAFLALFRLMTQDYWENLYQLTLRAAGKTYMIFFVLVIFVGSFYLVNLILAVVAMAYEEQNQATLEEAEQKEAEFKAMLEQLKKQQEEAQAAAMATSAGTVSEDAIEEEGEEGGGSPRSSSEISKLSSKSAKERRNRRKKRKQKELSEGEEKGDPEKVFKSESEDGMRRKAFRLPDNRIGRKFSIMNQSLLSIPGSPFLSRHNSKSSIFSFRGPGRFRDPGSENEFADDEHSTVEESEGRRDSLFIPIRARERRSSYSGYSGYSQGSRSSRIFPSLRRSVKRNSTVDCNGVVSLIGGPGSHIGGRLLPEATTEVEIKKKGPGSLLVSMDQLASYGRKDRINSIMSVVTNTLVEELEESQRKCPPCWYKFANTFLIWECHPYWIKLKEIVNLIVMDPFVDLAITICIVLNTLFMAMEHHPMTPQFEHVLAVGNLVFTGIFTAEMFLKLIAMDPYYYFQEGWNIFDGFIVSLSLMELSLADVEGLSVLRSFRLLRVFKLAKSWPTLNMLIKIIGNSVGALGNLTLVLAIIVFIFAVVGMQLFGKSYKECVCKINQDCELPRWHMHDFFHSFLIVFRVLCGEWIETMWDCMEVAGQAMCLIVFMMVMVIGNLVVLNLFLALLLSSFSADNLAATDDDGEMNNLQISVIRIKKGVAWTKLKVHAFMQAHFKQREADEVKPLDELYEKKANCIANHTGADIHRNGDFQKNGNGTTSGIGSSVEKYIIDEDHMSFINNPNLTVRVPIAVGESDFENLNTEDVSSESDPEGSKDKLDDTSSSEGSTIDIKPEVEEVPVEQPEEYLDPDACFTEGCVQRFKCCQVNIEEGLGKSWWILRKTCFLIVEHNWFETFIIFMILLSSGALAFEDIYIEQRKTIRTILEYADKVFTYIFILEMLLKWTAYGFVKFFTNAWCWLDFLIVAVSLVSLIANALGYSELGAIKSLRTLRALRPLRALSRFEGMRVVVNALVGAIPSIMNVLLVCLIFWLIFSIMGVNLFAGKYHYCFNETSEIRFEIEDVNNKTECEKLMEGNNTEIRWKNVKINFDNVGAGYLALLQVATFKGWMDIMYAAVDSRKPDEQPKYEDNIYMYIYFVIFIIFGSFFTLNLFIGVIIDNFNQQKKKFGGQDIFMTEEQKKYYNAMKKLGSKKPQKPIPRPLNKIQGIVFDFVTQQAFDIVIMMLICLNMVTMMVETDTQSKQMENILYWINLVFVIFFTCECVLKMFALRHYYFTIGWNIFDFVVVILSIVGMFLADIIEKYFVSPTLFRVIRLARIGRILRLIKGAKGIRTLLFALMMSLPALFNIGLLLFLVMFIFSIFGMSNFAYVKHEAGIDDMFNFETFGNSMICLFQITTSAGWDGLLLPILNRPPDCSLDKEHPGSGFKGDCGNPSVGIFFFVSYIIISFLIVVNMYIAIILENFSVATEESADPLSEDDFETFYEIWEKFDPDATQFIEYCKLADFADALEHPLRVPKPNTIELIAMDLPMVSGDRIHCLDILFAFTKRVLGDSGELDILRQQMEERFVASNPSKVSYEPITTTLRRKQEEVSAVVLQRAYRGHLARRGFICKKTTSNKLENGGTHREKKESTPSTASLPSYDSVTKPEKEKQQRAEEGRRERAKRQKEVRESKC

What was measured:
Type in all cases: cell-based
human Nav1.7 [1] = target: T1, human Nav1.7 (Homo sapiens, UniProt Q15858, W1161R)
human Nav1.7 [2] = target: T1, human Nav1.7; settings: read-out: hNav1.7 QPatch IC50
human Nav1.6 = human Nav1.6 (Homo sapiens, UniProt Q9UQD0)

Substance	IC50 (human Nav1.7 [1]; read-out: hNav1.7 TETRA IC50)	IC50 (human Nav1.7 [2])	IC50 (human Nav1.7 [1]; read-out: Nav1.7 IC50)	selectivity towards Nav1.7 compared to recombinant Protoxin-II (human Nav1.6)
GPACQKWMQTCDAERKCCEGFVCRLWCKKKLW-COOH [NV1D2774]	50.5 ± 15.2 nM	18.7 ± 13.6 nM		
GPQCQKWMQTCDAERKCCEGFVCRLWCKKKLW-OH (cysteine pairing not given here) [NV1D2775]	25.4 ± 2 nM	4 ± 8.9 nM	42.9 nM	improved selectivity
GPQCQKWMQTCDRERKCCEGFVCTLWCRKKLW-COOH [NV1D3034]	10.3 ± 2.1 nM	4.3 ± 4.3 nM		
GPRCQKWMQTCDAERKCCEGFVCRLWCKKKLW-OH (cysteine pairing not given here) [NV1D2772]	15.6 ± 1.8 nM	6.2 ± 3.2 nM		improved selectivity
GPSCQKWMQTCDAERKCCEGFVCRLWCKKKLW-OH (cysteine pairing not given here) [NV1D2773]	18.8 ± 1.5 nM	4.3 ± 3.3 nM	18.8 nM	
GPYCQKWMQTCDSERKCCEGFVCRLWCKKKLW-COOH [NV1D2666]	66.5 ± 36.7 nM			
GPYGRKKRRQRRRQCQKWMQTCDRERKCCEGFVCTLWCRKKLW-COOH [NV1D3818]			36.3 nM	
SCQKWMQTCDAERKCCEGFVCRLWCKKKLW-COOH [(-GP) NV1D2773]	9.47 nM		9.47 nM	

Read-outs that look alike come from different tables or passages of the source. Ends that are not written are not given here.
